Test results from publication PMC6539310, “Investigation on the Enzymatic Profile of Mulberry Alkaloids by Enzymatic Study and Molecular Docking” (Molecules, 2019).
Read-outs that look alike come from different tables or passages of the source.

Chains of the proteins cited; added tags and fusions are not shown. Lines headed by an entry give the natural chain unless they say otherwise; changes in a name come on top.
UniProt P23739: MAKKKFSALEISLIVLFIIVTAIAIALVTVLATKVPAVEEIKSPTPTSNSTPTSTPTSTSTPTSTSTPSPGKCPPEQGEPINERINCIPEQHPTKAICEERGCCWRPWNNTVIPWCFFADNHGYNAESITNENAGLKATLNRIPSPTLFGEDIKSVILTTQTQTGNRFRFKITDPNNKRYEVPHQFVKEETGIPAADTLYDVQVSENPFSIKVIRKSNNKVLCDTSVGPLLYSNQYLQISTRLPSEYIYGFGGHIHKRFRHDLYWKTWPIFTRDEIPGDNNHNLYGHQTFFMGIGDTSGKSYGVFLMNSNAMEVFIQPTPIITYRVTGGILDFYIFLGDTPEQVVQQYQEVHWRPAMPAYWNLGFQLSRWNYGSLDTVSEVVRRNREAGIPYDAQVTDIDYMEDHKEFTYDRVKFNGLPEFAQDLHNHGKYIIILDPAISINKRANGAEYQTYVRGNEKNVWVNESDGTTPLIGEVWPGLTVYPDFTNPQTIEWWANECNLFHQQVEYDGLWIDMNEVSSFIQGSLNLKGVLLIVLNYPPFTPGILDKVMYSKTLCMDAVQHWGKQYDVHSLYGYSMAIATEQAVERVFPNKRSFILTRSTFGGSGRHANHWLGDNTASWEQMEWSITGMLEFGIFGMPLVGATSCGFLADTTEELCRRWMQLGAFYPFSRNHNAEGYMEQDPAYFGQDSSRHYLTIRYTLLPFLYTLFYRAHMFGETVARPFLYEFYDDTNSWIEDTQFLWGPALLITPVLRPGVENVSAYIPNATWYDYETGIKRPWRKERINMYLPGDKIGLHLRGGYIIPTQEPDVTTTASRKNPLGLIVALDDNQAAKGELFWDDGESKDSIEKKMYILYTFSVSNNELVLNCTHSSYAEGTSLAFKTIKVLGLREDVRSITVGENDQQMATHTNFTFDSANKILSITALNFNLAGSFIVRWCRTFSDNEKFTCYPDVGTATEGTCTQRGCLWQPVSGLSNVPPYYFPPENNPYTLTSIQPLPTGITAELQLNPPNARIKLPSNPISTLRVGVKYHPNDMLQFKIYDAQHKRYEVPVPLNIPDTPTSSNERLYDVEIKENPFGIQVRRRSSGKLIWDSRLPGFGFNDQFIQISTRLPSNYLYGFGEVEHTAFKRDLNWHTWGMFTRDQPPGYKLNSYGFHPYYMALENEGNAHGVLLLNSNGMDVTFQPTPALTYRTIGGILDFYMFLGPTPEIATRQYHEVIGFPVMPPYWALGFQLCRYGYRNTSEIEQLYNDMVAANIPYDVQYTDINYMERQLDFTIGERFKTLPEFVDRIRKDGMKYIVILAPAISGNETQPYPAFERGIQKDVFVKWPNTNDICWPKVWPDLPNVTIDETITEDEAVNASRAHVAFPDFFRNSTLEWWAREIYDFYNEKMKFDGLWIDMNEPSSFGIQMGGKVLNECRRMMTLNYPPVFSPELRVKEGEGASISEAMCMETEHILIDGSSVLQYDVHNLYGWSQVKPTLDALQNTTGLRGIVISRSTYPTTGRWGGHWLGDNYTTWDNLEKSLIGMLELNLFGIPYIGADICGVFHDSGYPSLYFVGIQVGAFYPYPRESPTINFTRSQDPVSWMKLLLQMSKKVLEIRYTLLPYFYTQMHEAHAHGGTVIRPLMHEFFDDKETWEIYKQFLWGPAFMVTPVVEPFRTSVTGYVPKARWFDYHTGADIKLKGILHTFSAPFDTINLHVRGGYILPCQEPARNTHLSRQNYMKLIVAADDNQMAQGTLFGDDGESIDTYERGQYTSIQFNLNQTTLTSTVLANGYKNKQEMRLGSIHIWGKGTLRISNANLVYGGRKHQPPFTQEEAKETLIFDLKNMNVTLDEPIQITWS

Tests used:
sucrase [1] = target: T1, sucrase (Rattus norvegicus, UniProt P23739); assay: α-glucosidase inhibition assay, sucrase (sucrose substrate, glucose oxidase readout); format: biochemical, Wistar rats
T1 construct: Sucrase and maltase were obtained from the intestinal brush border of Wistar rats; from tissue; host or cells: intestinal brush border of Wistar rats
Description: (§1) Sucrase and maltase were obtained from the intestinal brush border of Wistar rats. […] Each stock solution was prepared with distilled water. All other solvents and chemicals were of analytical purity.
The modified inhibitory screening system was used to determine inhibitory activity on α-glucosidase. Selected starch, sucrose, and maltose were used as α-glucosidase substrates instead of p-nitrophenyl glucopyranoside. Maltase and sucrase were pre-incubated with different concentrations of compound (0.004–400 μmol/L) at 37 °C for 8 min, and the substrate was then added into initiate the reaction. After incubation at 37 °C for 40 min, 150 μL of glucose oxidase solution was added to each mixture and incubated at 37 °C for 40 min. […] Inhibitory percentage values were calculated using the formula: %Inhibition = (B − C)/B × 100, where B is the formation of glucose under the enzyme without compound and C is the formation of glucose with compound.

sucrase [2] = target: T1, sucrase; assay: Enzyme-kinetic analysis on sucrase (Lineweaver–Burk plots); format: biochemical, Wistar rats; settings: from LB plots
Description: as §1
Lineweaver–Burk double reciprocal plots (LB plots) were then obtained to calculate the kinetic constants and evaluate inhibitory type, the equation is as follows: 1/V = (Km + [S])/(Vmax[S]) = (Km/Vmax) * (1/[S]) + (1/Vmax),
In this equation, [S] denotes the concentration of substrate, V represents the enzyme reaction velocity and Km is the Michaelis–Menten constant.

With `C[C@H]1O[C@H](O[C@H]2[C@H](O)[C@@H](O)[C@@H](O[C@H]3[C@H](O)[C@@H](O)C(O)O[C@@H]3CO)O[C@@H]2CO)[C@H](O)[C@@H](O)[C@@H]1N[C@H]1C=C(CO)[C@@H](O)[C@H](O)[C@H]1O` (stereo partly drawn) [Acarbose, acarbose, reference compound] the IC50 (sucrase [1]; converted from μmol/L by mol wt, read-out: Sucrase IC50 after conversion according to the molecular weight (converted)) was 1050 nM, the IC50 (sucrase [1]; read-out: Sucrase Inhibition IC50) was 1050 nM and the Ki (sucrase [2]) was 53.2 nM.
